We go through three compounds from patent US20250144562A1, “ELECTROCHEMICAL CO2 CAPTURE WITH AIR STABLE REDOX SPECIES” (President and Fellows of Harvard College, priority 2022, published 2025).

The structures appear in SMILES notation.

The series in a line: Stability in air of reduced BTMAPAQ isomers (with and without captured CO2) tracked by 1H NMR.
Setting [1] is: with captured CO2, D2O, 1 M KCl, air exposure.

`C[N+](C)(C)CCCOc1cccc2c1C(=O)c1c(OCCC[N+](C)(C)C)cccc1C2=O` [1,8-BTMAPAQ]: the “air stability (1H NMR spectra unchanged)” value (with captured CO2, D2O, 1 M TBABr, air exposure over nine days) is “excellent air stability over the first five days”. On to `C[N+](C)(C)CCCOc1cccc2c1C(=O)c1cccc(OCCC[N+](C)(C)C)c1C2=O` [1,5-BTMAPAQ], for which the “air stability (1H NMR spectra unchanged)” value under setting [1] is recorded as “great air stability over the first two days”. As to `C[N+](C)(C)CCCOc1ccc(OCCC[N+](C)(C)C)c2c1C(=O)c1ccccc1C2=O` [1,4-BTMAPAQ], the “air stability (1H NMR spectra unchanged)” value by setting is: under setting [1], “good air stability over the first two days”; (without captured CO2, D2O, 1 M KCl, air exposure) “excellent air stability over the first two days”.
